# Apparent affinities of Ab-91 variants for a coronavirus HR2 peptide

Target: peptide PDVDLGDISGINAS, taken from heptad repeat 2 (HR2) of SARS-CoV-2 spike.

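The parent was found by panning a naive human phage display library on the peptide. Library AAYL51 holds single substitutions and randomly drawn double and triple substitutions in the CDRs. The scFvs were displayed on barcoded MATa yeast, the peptide on MATalpha yeast. Binding brings cells together so that they mate, and sequencing counts the barcode pairs among the diploids. A regression on co-assayed BCL2-family reference pairs converts the normalised counts of each replicate to an apparent Kd. Each pool was mated in three replicate cultures.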

Ab-91 is the parent antibody, in scFv form: VL, then a (GGGGS)3 linker, then VH. The light chain is unchanged in all variants.
VL: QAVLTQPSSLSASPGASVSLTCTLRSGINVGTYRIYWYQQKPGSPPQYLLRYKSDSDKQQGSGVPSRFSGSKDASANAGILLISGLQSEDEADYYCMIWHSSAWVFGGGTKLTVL
VH: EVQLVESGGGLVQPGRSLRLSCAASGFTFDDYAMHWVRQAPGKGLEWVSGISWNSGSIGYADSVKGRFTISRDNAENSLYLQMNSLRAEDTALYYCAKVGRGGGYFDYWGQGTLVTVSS

Variants are written as CDR1, CDR2 and CDR3 of the heavy chain (limits as in the source). Parent: GFTFDDYAMH, GISWNSGSIGYADSVK, VGRGGGYFDY.
Values are log10 of the apparent Kd in nM; lower means stronger binding.
Replicates are averaged; those with no signal do not enter the mean.
A pair that was not seen in any replicate is written "no signal"; this usually means weak binding, but a binder can also be missed.
Parent in this assay: reference entry 1.86, copy in this library 0.88.
As a blank, each scFv also met three strains without target: over library AAYL51, 21% of these pairings were detected, typically at 4.54 and seldom below 3.26. The control count says in how many pairings with the empty strains this scFv gave a signal.

| CDR-H1 | CDR-H2 | CDR-H3 | mean, log10 nM | replicates with signal | signal with controls |
|---|---|---|---|---|---|
| MFTFDDYAMH | GISHNSGSPGYADSVK | VGRGGGYFDY | no signal | 0 of 3 | 0 of 9 |
| GFTFDDYAMH | GIDWNSGSIGYADSVK | RGRGGGYFDY | 5.52 | 2 of 3 | 4 of 9 |
| GFTFDDYAMI | GIVWNSGSIGYADSVK | VGRGGGYFDY | no signal | 0 of 3 | 0 of 9 |
| GFTFDDYAMY | GISWNSGSIGYADSVD | VGRGGGYFDY | no signal | 0 of 3 | 3 of 9 |
| GFTFDDYAYH | GISWNSGSIPFADSVK | VGRGGGYFDY | no signal | 0 of 3 | 3 of 9 |
| GFTFDDYAPH | GISWNSGSIGYEDSVT | VGRGGGYFDY | 4.28 | 1 of 3 | 0 of 9 |
| GFTFDDYAMH | GISWNSSSIGYADSVK | VGWGGGYFDY | 3.53 | 1 of 3 | 3 of 9 |
| GFTFDDYAMY | GISWNSGSIGYADSVK | VGIGGGYNDY | 4.14 | 2 of 3 | 4 of 9 |
| GFTFDDYAMH | GISWNSGSIGYMDSVK | VTRFGGYFDY | no signal | 0 of 3 | 1 of 9 |
| GFTFPDYAMH | NISDNSGSIGYADSVK | VGRGGGYFDY | no signal | 0 of 3 | 0 of 9 |
| GFTSDDYAMH | GISWNSGSIGYADSVN | VGRGGIYFDY | 5.43 | 1 of 3 | 5 of 9 |
| GLTFDDYAMH | GISWNSGSIGYADSVE | VGRGGGYNDY | no signal | 0 of 3 | 0 of 9 |
| GPTFDQYAMH | IISWNSGSIGYADSVK | VGRGGGYFDY | no signal | 0 of 3 | 0 of 9 |
| GFTFDDSAMH | GISWNSGSIGYADSVK | VARGGGYFFY | 3.21 | 1 of 3 | 0 of 9 |
| GFTYDDYAMH | AISWNSGSFGYADSVK | VGRGGGYFDY | no signal | 0 of 3 | 0 of 9 |
| GYTFDDYAMH | GISWNSWSVGYADSVK | VGRGGGYFDY | 1.86 | 3 of 3 | 4 of 9 |
| GFTFDDYAMH | EISWHSGSIGYADSVK | VGRGGDYFDY | 3.60 | 1 of 3 | 0 of 9 |
| GFTFDDYAMH | DISWNSGSIGYWDSVK | VGRGGGYFFY | 4.74 | 2 of 3 | 2 of 9 |
| GTTFDDYAMH | GISWNSGSIGYNDSVK | VGRGGGAFDY | 5.08 | 1 of 3 | 4 of 9 |
| GHTFDDYAMH | GISWNSGSIGYADSVK | VGRCGGYFWY | 4.89 | 1 of 3 | 1 of 9 |
| GFTFDDYAMH | GTSWNSGSIGYWDSVK | VGRGGGYFAY | no signal | 0 of 3 | 0 of 9 |
| GFTFDDVAMH | GISWNSGSIGYADFVK | VGRGGGYFDF | no signal | 0 of 3 | 0 of 9 |
| GFTFDDYAMH | GLSDYSGSIGYADSVK | VGRGGGYFDY | 4.28 | 1 of 3 | 1 of 9 |
| GFTFDDYAMH | GISWNSGSIGYADCVC | VGRGGGYFKY | no signal | 0 of 3 | 2 of 9 |
| MFTFDDYAMH | GISWNWPSIGYADSVK | VGRGGGYFDY | 5.93 | 2 of 3 | 3 of 9 |
| GFTFDDYAMD | GISWNSGSIGYADMVK | VGRGGGYVDY | no signal | 0 of 3 | 0 of 9 |
| GFTFDDYAMH | GIGWLLGSIGYADSVK | VGRGGGYFDY | no signal | 0 of 3 | 1 of 9 |
| GFTFDDYAMH | GTSYHSGSIGYADSVK | VGRGGGYFDY | no signal | 0 of 3 | 0 of 9 |
| GFTFIDYAMH | GISWNSGSIGYYDSVK | VGRGGGNFDY | 4.39 | 3 of 3 | 1 of 9 |
| GFTIDQYAMH | GILWNSGSIGYADSVK | VGRGGGYFDY | 5.10 | 1 of 3 | 2 of 9 |
| GFTFDDYAHH | GISWNSGSHGYADSVK | VGRGGGMFDY | 4.95 | 1 of 3 | 2 of 9 |
| GFTFDDYAMH | GISWNSGSIGYADSVK | VGRGMGYCDK | 4.08 | 1 of 3 | 1 of 9 |
| GFTFKDYAMH | GISWNSGSINYADSGK | VGRGGGYFDY | no signal | 0 of 3 | 0 of 9 |
| GFTTDDYAMH | GISWNSGSIGYADSKK | VGRGAGYFDY | no signal | 0 of 3 | 1 of 9 |
| GFTFFDYAMH | GISWQSGSVGYADSVK | VGRGGGYFDY | 2.68 | 2 of 3 | 3 of 9 |
| GFTFDSYAMH | GISWNSQSIGYADWVK | VGRGGGYFDY | 0.15 | 3 of 3 | 6 of 9 |
| GFTFDDSAMH | GISWNSGSIGYADSVK | VGNGGGYKDY | no signal | 0 of 3 | 0 of 9 |
| GFTFDDYAMH | GISWNSGVVGYADSVK | VGRGGGPFDY | 4.75 | 1 of 3 | 2 of 9 |
| GFSFDDYAMH | GISWNSGSIGVADSVK | VGHGGGYFDY | 3.09 | 3 of 3 | 3 of 9 |
| GQTFDDYAMH | MISWNSGSIGYADSVK | VGRGAGYFDY | no signal | 0 of 3 | 0 of 9 |
| EFRFDDYAMH | GISWNSGSIGYADSVK | VGRGGGWFDY | no signal | 0 of 3 | 3 of 9 |
| GFTFDDYAMH | GISWNSGSIGTADSVK | NGRGGCYFDY | 1.75 | 3 of 3 | 2 of 9 |
| GFTFDHYAMH | GIMWNAGSIGYADSVK | VGRGGGYFDY | 5.06 | 2 of 3 | 3 of 9 |
| GFTFMDYAMH | GISWNSGSIGYADSVK | VGRHGGYFDY | 2.56 | 3 of 3 | 5 of 9 |
| GFTFDDYAMY | TISWNSGSIGYADSVK | VGRGGGYFNY | no signal | 0 of 3 | 0 of 9 |
| GFTFDDYAMH | GISMNMGSIGYADSVK | VGRGGGYFDY | 2.24 | 3 of 3 | 4 of 9 |
| GFTFDDYAME | GISWNTGSIGYADQVK | VGRGGGYFDY | no signal | 0 of 3 | 2 of 9 |
| EFTFDDAAMH | GISWTSGSIGYADSVK | VGRGGGYFDY | no signal | 0 of 3 | 1 of 9 |
| GFTFDDYAMH | IISWNSGSIGYADSVE | KGRGGGYFDY | no signal | 0 of 3 | 0 of 9 |
| GFTFDDYAHH | GISWNSGSILYADSVK | VGRGGGYFDY | 4.41 | 1 of 3 | 2 of 9 |
| GFFFQDYAMH | GISWNSGSIGYADSSK | VGRGGGYFDY | 4.06 | 3 of 3 | 2 of 9 |
| GFTFDDYAQH | GISWNSGSIMYADYVK | VGRGGGYFDY | 4.69 | 1 of 3 | 1 of 9 |
| GFTFDDYAMH | GISWNSGSIGYADSVK | VGWGGGYFDW | 0.92 | 3 of 3 | 0 of 9 |
| GSTFDDQAMH | FISWNSGSIGYADSVK | VGRGGGYFDY | 4.62 | 2 of 3 | 2 of 9 |
| GFTFDDYAMH | GISWNSGSWGYADSDK | VGFGGGYFDY | 4.61 | 2 of 3 | 5 of 9 |
| GFTFDDMAMH | GISWNSGSIGYADSVK | VGRRGCYFDY | 1.95 | 3 of 3 | 0 of 9 |
| SFTFDDYAMH | GISWNSGSIGVADSVK | VGRGGNYFDY | 4.29 | 1 of 3 | 0 of 9 |
| GFTFDDYAMH | GISWNDGSIGYAQSPK | VGRGGGYFDY | no signal | 0 of 3 | 1 of 9 |
| GFGFDDYAMH | GISWNSGSIGYVDSVK | VGRGGGYFIY | 4.23 | 1 of 3 | 2 of 9 |
| GFTFDDYAMH | GISWESGSIGYADSVK | VGRYGGYFGY | 4.08 | 1 of 3 | 1 of 9 |
| GFTFDDYQMH | GISWNSLSDGYADSVK | VGRGGGYFDY | no signal | 0 of 3 | 1 of 9 |
| GFTFDDVAMH | GISMNSGSIGYADSVK | VGDGGGYFDY | no signal | 0 of 3 | 1 of 9 |
| GFTFDDYAGH | GIFWNSTSIGYADSVK | VGRGGGYFDY | 4.58 | 1 of 3 | 1 of 9 |
| GFTFDDYAFH | GIVWNSGSIGYADSVK | VGRGGGMFDY | 4.21 | 1 of 3 | 1 of 9 |
| GFTFDDYAMH | GISWNSGSIGYADWVK | VGIGGGYFWY | no signal | 0 of 3 | 1 of 9 |
| GFTFDDYAMQ | GISWNSGSIMAADSVK | VGRGGGYFDY | 4.44 | 1 of 3 | 3 of 9 |
| GFTFDDYAMH | GIDWNSGSIGYADSVK | VIRGGGYYDY | 4.25 | 2 of 3 | 1 of 9 |
| EFTFDDYAMH | GVSWNSGSIGYAQSVK | VGRGGGYFDY | no signal | 0 of 3 | 0 of 9 |
| GFTFDDIAMH | GISWNSGSIGYADSKK | VGRGKGYFDY | no signal | 0 of 3 | 0 of 9 |
| GFRFDDYAMH | GLSWNSGSIGMADSVK | VGRGGGYFDY | 3.66 | 2 of 3 | 1 of 9 |
| GFTFGDDAMH | GISWDSGSIGYADSVK | VGRGGGYFDY | no signal | 0 of 3 | 0 of 9 |
| GTTFDDYAMH | GISWNSGSIVYADSVK | VGRMGGYFDY | 4.05 | 2 of 3 | 3 of 9 |
| GFTDDDYAMH | GISWNSGSIGYADSVM | VGRGGGRFDY | 3.77 | 1 of 3 | 1 of 9 |
| GFTADDYAMH | GISWNSGSIGYADSVK | VGRGGGYFAY | 3.62 | 1 of 3 | 2 of 9 |

Top 10 of the variants detected in all replicates, tightest first:

CDR-H1	CDR-H2	CDR-H3	mean, log10 nM	replicates with signal	signal with controls
GFTFDSYAMH	GISWNSQSIGYADWVK	VGRGGGYFDY	0.15	3 of 3	6 of 9
GFTFDDYAMH	GISWNSGSIGYADSVK	VGWGGGYFDW	0.92	3 of 3	0 of 9
GFTFDDYAMH	GISWNSGSIGTADSVK	NGRGGCYFDY	1.75	3 of 3	2 of 9
GYTFDDYAMH	GISWNSWSVGYADSVK	VGRGGGYFDY	1.86	3 of 3	4 of 9
GFTFDDMAMH	GISWNSGSIGYADSVK	VGRRGCYFDY	1.95	3 of 3	0 of 9
GFTFDDYAMH	GISMNMGSIGYADSVK	VGRGGGYFDY	2.24	3 of 3	4 of 9
GFTFMDYAMH	GISWNSGSIGYADSVK	VGRHGGYFDY	2.56	3 of 3	5 of 9
GFSFDDYAMH	GISWNSGSIGVADSVK	VGHGGGYFDY	3.09	3 of 3	3 of 9
GFFFQDYAMH	GISWNSGSIGYADSSK	VGRGGGYFDY	4.06	3 of 3	2 of 9
GFTFIDYAMH	GISWNSGSIGYYDSVK	VGRGGGNFDY	4.39	3 of 3	1 of 9

From the AlphaSeq antibody data of Engelhart et al. 2022 (doi:10.1038/s41597-022-01779-4), copy in the FLAb collection.